Earlier results in US20070212428A1, “METHODS AND COMPOSITIONS FOR TREATING MOOD DISORDER” (MOOD MANAGEMENT SCIENCES, INC., priority 2004, published 2007).

Columns and labels:
[1] = tested on: receptors for benzodiazepine, glutamate, N-methyl-D-aspartate (NMDA), quisqualate, kainite, strychnine-insensitive or strychnine-sensitive glycine, α1, α2, or …; settings: at concentrations of 100 μM; cited from earlier work
[2] = tested on: dopamine D4, serotonin 5-HT2C and 5-HT7, α-adrenergic and histamine H1 receptors; settings: cited from earlier work
[3] = tested on: dopamine D2 and D3, serotonin 5-HT1A and 5-HT2A receptors; settings: cited from earlier work
[4] = tested on: serotonergic (5-HT1-7) or other receptors including α-adrenergic, β-adrenergic, dopamine (D-1-5), histamine (H1-3), muscarinic (M1-5), and benzodiazepine …; settings: cited from earlier work
[5] = tested on: serotonin 5-HT2A/2C, dopamine D1-4, muscarinic M1-5, histamine H1, and adrenergic α1 receptors; settings: cited from earlier work
[6] = tested on: serotonin 5-HT1A and 5-HT2 receptors, dopamine D1 and D2 receptors, histamine H1 receptors, and adrenergic α1 and α2 receptors; settings: cited from earlier work

Compound: 1-(aminoethyl)cyclohexaneacetic acid [gabapentin]
- affinity [1]: does not exhibit affinity

Compound: O=C1CCc2ccc(OCCCCN3CCN(c4cccc(Cl)c4Cl)CC3)cc2N1 [aripiprazole, 7-[4-[4-(2,3-dichlorophenyl)-1-piperazinyl]butoxy]-3,4-dihydrocarbostyril]
- affinity [2]: moderate affinity
- affinity [3]: high affinity

Compound: CN(C)CCC[C@@]1(c2ccc(F)cc2)OCc2cc(C#N)ccc21 [escitalopram, S-(+)-1-[3-(dimethylamino)propyl]-1-(p-fluorophenyl)-5-phthalancarbonitrile oxalate]
- affinity [4]: no or very low affinity

Compound: Cc1cc2c(s1)Nc1ccccc1N=C2N1CCN(C)CC1 [olanzapine, 2-methyl-4-(4-methyl-1-piperazinyl)-10H-thieno[2,3-b][1,5]benzodiazepine]
- binding [5]: high affinity binding

Compound: OCCOCCN1CCN(C2=Nc3ccccc3Sc3ccccc32)CC1 [quetiapine, 5-[2-(4-dibenzo[b,f][1,4]thiazepin-11-yl-1-piperazinyl)ethoxy]ethanol fumarate]
- functional activity [6]: antagonist

Structures can show the parent of a compound that is named as a salt.
